Assays:
LNCaP-C4.2 = experiment: Enzymatic cleavage by cathepsin B, cytotoxicity of released drug on LNCaP-C4.2 as 5T4-negative line; format: cell-based, human; conditions: 4 hours pre-incubation with cathepsin B, LNCaP-C4.2 used as the 5T4-negative cell line
Method: The valine-citrulline moiety present in the linker of the ADCs with vc-seco-DUBA (SYD980) and vc-MMAE can be cleaved by cysteine proteases, such as cathepsin B, which results in subsequent intracellular release of the (seco-)DUBA or MMAE drug inside the tumour lysosomes or extracellular in the tumour microenvironment. To assess the sensitivity towards cathepsin B, the ADCs were treated for 2 minutes and 4 hours with activated cathepsin B (Calbiochem). The cytotoxic activity of the released drug from the anti-PSMA ADCs was measured on PSMA-negative DU-145 cells. The cytotoxic activity of the released drug from the anti-5T4 ADCs was measured on 5T4-negative SK-MEL-30 cells. During the pre-incubation step at 37° C., 1 mg/ml of each ADC was mixed with 5 μg/ml cathepsin B (0.04 units/well) in 0.1M Na-acetate pH 5 containing 4 mM DTT. As a control, 1 mg/ml of each ADC was directly diluted in culture medium (RPMI 1640, 10% qualified FBS). Serial dilutions were made from these ADC solutions in culture medium. To measure release of the respective free toxins DUBA or MMAE, PSMA-negative DU-145 cells (1,000 cells/well) and 5T4-negative SK-MEL-30 cells (2,000 cells/well) were cultured with the ADCs for 6 days, and the cell viability was measured after 6 days using the CellTiter-Glo™ (CTG) assay kit.

[1] = Analytical HIC, relative hydrophobicity of ADCs; format: physicochemical; conditions: vc-seco-DUBA ADCs; (RTDAR2-RTDAR0)/(RTDAR2,wt-ADC-RTDAR0,wt-ADC); double mutants are DAR4 species (RT wt DAR4 = 12.2)
Method: For analytical HIC, 5-10 μL of sample (1 mg/ml) was injected onto a TSKgel Butyl-NPR column (4.6 mm ID×3.5 cm L, Tosoh Bioscience, cat. nr. 14947). The elution method consisted of a linear gradient from 100% Buffer A (25 mM sodium phosphate, 1.5 M ammonium sulphate, pH 6.95) to 100% of Buffer B (25 mM sodium phosphate, pH 6.95, 20% isopropanol) at 0.4 ml/min over 20 minutes. A Waters Acquity H-Class UPLC system equipped with PDA-detector and Empower software was used. Absorbance was measured at 214 nm and the retention time of ADCs was determined.
As made apparent by analytical HIC, there were differences in the retention times (RTs) for the DAR2 species of the different cysteine engineered ADCs versus the wt conjugates (Tables 1, 2 and 3). […] To further quantify this effect, the term relative hydrophobicity is introduced, which is defined as: (RTDAR2−RTDAR0)/(RTDAR2,wt-ADC−RTDAR0,wt-ADC). In essence, the relative hydrophobicity is a measure that allows a facile comparison between the hydrophobicity of the engineered ADCs versus the wt-conjugated counterparts based on HIC data.

[2] = High molecular weight species (aggregates) of ADCs; format: physicochemical; conditions: vc-seco-DUBA ADCs, amount of aggregates formed

B1: H8-wt: non-engineered anti-5T4 wt H8 antibody conjugated to vc-seco-DUBA (conjugate)
heavy: QVQLVQSGAEVKKPGASVKVSCKASGYSFTGYYMHWVKQSPGQGLEWIGRINPNNGVTLYNQKFKDRVTMTRDTSISTAYMELSRLRSDDTAVYYCARSTMITNYVMDYWGQGTLVTVSSASTKGPSVFPLAPSSKSTSGGTAALGCLVKDYFPEPVTVSWNSGALTSGVHTFPAVLQSSGLYSLSSVVTVPSSSLGTQTYICNVNHKPSNTKVDKKV[human IgG1 Fc not shown]
light: DIVMTQSPDSLAVSLGERATINCKASQSVSNDVAWYQQKPGQSPKLLISYTSSRYAGVPDRFSGSGSGTDFTLTISSLQAEDVAVYFCQQDYNSPPTFGGGTKLEIKRTVAAPSVFIFPPSDEQLKSGTASVVCLLNNFYPREAKVQWKVDNALQSGNSQESVTEQDSKDSTYSLSSTLTLSKADYEKHKVYACEVTHQGLSSPVTKSFNRGEC
% efficacy, free drug cleaved by cathepsin B (LNCaP-C4.2): 98%
IC50 (LNCaP-C4.2; read-out: IC50 (nM), free drug cleaved by cathepsin B): 0.35 nM
Relative hydrophobicity [1]: 1.0
HMW (%) [2]: 4.4%
